Earlier results in patent publication US10801027B2, “Inhibitors of SRSF1 to treat neurodegenerative disorders” (University of Sheffield, priority 2016, dated 2020).

Settings: ALS patients; cited from earlier work

## Nc1nc2ccc(OC(F)(F)F)cc2s1 [riluzole]
  prolongation of survival: approximately 3 months
